# Screens as filed in PubChem.
# Shown are actives, neighbours in structure and some others; about 2.3% of the full set was active somewhere.
# MC4R barr agon – human MC4R agonism via beta-arrestin; activation, % at 8.9 µM; 360,000 compounds, 0.98% hits; U2OS MC4R beta-arrestin complementation, luminescence; percent of melanotan II response, DMSO zero; AID 540308; P32245;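 active = activation above a per-plate cutoff, the mean activation of sample wells on that plate plus 3 SD, cut at about 8% in these data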
# UUG fidelity – modulators of start codon recognition fidelity in yeast. S. cerevisiae UUG-firefly luciferase reporter, luminescence/redox ratio. activity score, % at 18.7 µM. 0.13% of 350,000 active. AID 602363;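 active = replicate mean at a twofold rise or more, about +100% in these data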;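 also: firefly luciferase made from a UUG start codon reports start codon fidelity; reporter light over untreated wells divided by growth signal over untreated wells; some hits fall short of that in this replicate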
# NRP1-CendR mod – modulators of CendR peptide binding to human neuropilin-1; O14786; FAM-RPARPAR peptide binding to NRP-1, fluorescence polarization; inhibition, % at 25 µM; 360,000 compounds, 0.85% hits;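 active = inhibition or corrected inhibition above about 18%, plus a signal ratio from 0.5 to 1.5, limit read from the data, passing the limit was not always enough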
# MC4R antagonist – antagonists of human melanocortin 4 receptor (MC4R) | P32245 | MC4R-expressing cells, MTII-stimulated cAMP, LANCE TR-FRET | inhibition, % at 6.5 µM | 360,000 compounds, 0.48% hits | AID 540295;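 active = inhibition above its plate's cutoff, the mean of tested wells on that plate plus 3 SD, cut at about 29% in these data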;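 note: 0% = Melanotan II alone and 100% = Melanotan II plus saturating MCL0020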
#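 Material: U2OS-MC4R stable cell line | Reagent: Melanotan II challenge after compound preincubation | Doses: One concentration, 6.5 µM nominal | Incubation: 30-min compound preincubation, 1-h Melanotan II challenge, 1-h detection, room temperature | Signal: TR-FRET cAMP assay | Replicates: One well per compound, no replicates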
# ASAP1 inh – inhibitors of human ASAP1 ArfGAP activity | inhibition, % at 16.5 µM | Q9ULH1 | 360,000 compounds, 0.19% hits | ASAP1-stimulated ARF1 GTP hydrolysis, GDP FP detection | AID 624377; in the data active = inhibition above about 25%;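 note: 0% = vehicle with enzyme and substrate and 100% = no enzyme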
# ARFGAP1 inh – inhibitors of rat ARFGAP1 | Q62848 | Arfgap1-stimulated ARF1 GTP hydrolysis, GDP FP detection | inhibition, % at 16.5 µM | 360,000 compounds, 0.26% hits | AID 651572;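 active = inhibition above a per-plate limit, mean inhibition of low control wells plus 3 SD, cut at about 25% in these data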;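 note: 0% = DMSO wells with enzyme and 100% = wells lacking Arfgap1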
#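 Assay system: purified rat His6-Arfgap1 residues 1-136 (GAP domain); Reagent: human Δ17 ARF1 bound to GTP; Dosing: 16.5 µM single point, 1.26% DMSO; Times: GTP hydrolysis reaction 2 h at 25 °C; Signal: FP, GDP Alexa 633 tracer displaced from anti-GDP antibody, 620/688 nm; Measure: % inhibition from polarization.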
# MC4R barr ag – human MC4R beta-arrestin agonism confirmation | U2OS MC4R beta-arrestin recruitment, luminescence; scaled DMSO 0%, Melanotan II 100% | shares compounds with MC4R barr agon | AID 602192 | activation, % at 8.9 µM | 2,400 compounds, 31% hits;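 active = mean activation across replicates above the hit cutoff set in the earlier primary screen, cut at about 8% in these data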
# MOR-DOR barr ag – counter-screen for MC4R agonists: agonists of mu-delta opioid heterodimer; U2OS PathHunter beta-arrestin, beta-gal luminescence; percent of deltorphin B response, DMSO zero; activation, % at 9.2 µM; shares compounds with MC4R barr agon; 2,400 compounds, 5.8% hits;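 active = mean activation across replicates exceeds the hit threshold derived in the earlier primary screen, cut at about 18% in these data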;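 note: 100% = deltorphin B at 0.9 µM final and 0% = DMSO alone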
# * marks the source's active call; other numbers are inactive results; . = no result.
1) Cc1ccc(C(=O)Nc2ncc(Cc3ccc(SC(F)F)cc3)s2)cc1
2) O=C(O)C[C@H]1C[C@H]2c3cc(NC(=O)C4CCC4)ccc3O[C@H]2[C@H](CO)O1
3) CC(C)Oc1ccc(C(CCNCc2ccc(O)cc2)c2ccccc2)cc1 (stereo unspecified)
4) O=C(C[C@@H]1C[C@@H]2c3cc(NC(=O)C4CCOCC4)ccc3O[C@@H]2[C@@H](CO)O1)NCCc1ccccc1
5) O=S(=O)(Nc1cc2nc3ccccc3nc2n1Cc1ccccc1)c1ccc(Cl)cc1
6) CCOc1ccc(N2C(=O)CN(C)C2=S)cc1
assay / compound | 1 | 2 | 3 | 4 | 5 | 6
MC4R barr agon | 18* | . | 12* | . | 15* | -2
UUG fidelity | -11 | 1 | 14 | 8 | . | -8
NRP1-CendR mod | -10 | . | 25* | . | -49 | -5
MC4R antagonist | -17 | . | 2 | . | -9 | 8
ASAP1 inh | 4 | . | -3 | . | -8 | 7
ARFGAP1 inh | 8 | . | 8 | . | -14 | 4
MC4R barr ag | 9.0* | . | 24* | . | 10* | .
MOR-DOR barr ag | 4 | . | 24* | . | 10 | .

7) CCOc1ccc(N2C(=O)/C(=C/c3cccs3)N(C)C2=S)cc1
8) O=C(CCN1C(=O)/C(=C/c2ccccc2F)SC1=S)NC1C=CS(=O)(=O)C1 (stereo unspecified)
9) O=C(Nc1ccc(F)cc1)c1cc(-c2ccncc2)nc2c(Cl)cccc12
10) CN1CCC2(CC1)N=C(c1ccc(F)cc1)C(=S)N2C(=O)c1ccc(C(C)(C)C)cc1
11) Cc1cccc(Nc2ncnc3onc(-c4cccc(Cl)c4)c23)c1
12) Clc1cccc(-c2noc3ncnc(Nc4ccc5c(c4)OCO5)c23)c1
assay / compound | 7 | 8 | 9 | 10 | 11 | 12
MC4R barr agon | 26* | 10* | 12* | 11* | 11* | 0
UUG fidelity | . | 1 | -13 | -1 | -19 | 7
NRP1-CendR mod | -1 | -14 | -2 | -14 | 16 | 2
MC4R antagonist | 4 | -3 | -2 | 13 | 6 | 5
ASAP1 inh | -3 | -8 | -1 | 4 | 4 | 5
ARFGAP1 inh | 12 | 8 | -7 | -14 | -7 | -11
MC4R barr ag | 12* | -1 | 1 | 5 | 0 | .
MOR-DOR barr ag | 4 | 2 | 10 | 18 | 6 | .

# In the list so far, 3 have two or more sulfur atoms:
1) Cc1ccc(C(=O)Nc2ncc(Cc3ccc(SC(F)F)cc3)s2)cc1
7) CCOc1ccc(N2C(=O)/C(=C/c3cccs3)N(C)C2=S)cc1
8) O=C(CCN1C(=O)/C(=C/c2ccccc2F)SC1=S)NC1C=CS(=O)(=O)C1 (stereo unspecified)
assay / compound | 1 | 7 | 8
MC4R barr agon | 18* | 26* | 10*
UUG fidelity | -11 | . | 1
NRP1-CendR mod | -10 | -1 | -14
MC4R antagonist | -17 | 4 | -3
ASAP1 inh | 4 | -3 | -8
ARFGAP1 inh | 8 | 12 | 8
MC4R barr ag | 9.0* | 12* | -1
MOR-DOR barr ag | 4 | 4 | 2

# The list continues:
13) CCOc1ccc(C(=O)Nc2ccc(N3CCN(C(=O)c4ccco4)CC3)cc2)cc1Br
14) CCC(=O)N1CCN(c2ccc(NC(=O)c3ccc4ccccc4c3)cc2)CC1
15) Cc1ccc(CSCC(=O)N/N=C/c2ccc(OCC(=O)Nc3ccc(C)cc3)cc2)cc1
16) COc1ccc(NC(=O)N(C)C[C@H]2OCCCC[C@H](C)Oc3ccc(NS(=O)(=O)c4ccccc4)cc3C(=O)N([C@H](C)CO)C[C@@H]2C)cc1
17) O=[N+]([O-])c1ccc(N=Nc2c(O)[nH]c3ccc(F)cc23)cc1
18) O=[N+]([O-])c1ccc2[nH]c(O)c(N=Nc3ccc(F)cc3)c2c1
assay / compound | 13 | 14 | 15 | 16 | 17 | 18
MC4R barr agon | 14* | 17* | 16* | . | 18* | 0
UUG fidelity | -15 | -21 | 0 | 6 | 1 | -11
NRP1-CendR mod | 5 | -2 | 2 | . | 8 | -9
MC4R antagonist | 1 | 3 | 4 | . | 10 | 12
ASAP1 inh | 5 | -12 | 4 | . | 10 | 8
ARFGAP1 inh | 6 | 4 | -1 | . | 4 | -8
MC4R barr ag | 3 | 6 | 4 | . | 10* | .
MOR-DOR barr ag | 4 | 10 | 5 | . | 1 | .

19) O=C(c1cnc2ccc3ccccc3c2c1)c1cc(F)ccc1O
20) Cc1nn(C)c2ncc(C(=O)c3cc(F)ccc3O)cc12
21) CCOC(=O)c1cccc(NC(=O)CSc2nnc(COc3ccccc3C)o2)c1
22) C[C@@H]1CCCCO[C@H](CN(C)S(=O)(=O)c2cccs2)[C@H](C)CN([C@@H](C)CO)C(=O)c2cc(NS(C)(=O)=O)ccc2O1
23) CCCn1c(=S)[nH]c2cc(C(=O)N3CCc4ccccc4C3)ccc2c1=O
assay / compound | 19 | 20 | 21 | 22 | 23
MC4R barr agon | 22* | 2 | 11* | . | 12*
UUG fidelity | . | . | -7 | -2 | .
NRP1-CendR mod | -6 | -7 | 2 | . | -8
MC4R antagonist | 8 | 13 | -12 | . | 9
ASAP1 inh | -8 | 0 | 4 | . | -7
ARFGAP1 inh | 1 | 1 | 0 | . | 7
MC4R barr ag | -4 | . | 3 | . | -3
MOR-DOR barr ag | 5 | . | 9 | . | 3
